Sequences of proteins named here, by UniProt entry; tags and fusion partners are left off.
UniProt P41146, whole entry: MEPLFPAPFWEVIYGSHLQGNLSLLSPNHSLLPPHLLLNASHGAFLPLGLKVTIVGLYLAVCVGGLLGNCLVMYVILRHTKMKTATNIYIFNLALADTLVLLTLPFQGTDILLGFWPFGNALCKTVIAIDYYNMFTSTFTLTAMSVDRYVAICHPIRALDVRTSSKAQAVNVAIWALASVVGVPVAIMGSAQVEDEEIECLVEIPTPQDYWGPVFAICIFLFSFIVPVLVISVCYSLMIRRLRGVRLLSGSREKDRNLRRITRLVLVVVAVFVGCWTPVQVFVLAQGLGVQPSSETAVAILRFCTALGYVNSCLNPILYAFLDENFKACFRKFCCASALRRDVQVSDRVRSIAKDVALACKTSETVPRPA

In ChEMBL document CHEMBL1148282, “A novel series of piperidin-4-yl-1,3-dihydroindol-2-ones as agonist and antagonist ligands at the nociceptin receptor” (2004):

Biological target: Nociceptin receptor (Homo sapiens) (UniProt P41146)
Assay: Percent stimulation of [35S]GTP-gamma-S, binding to human Nociceptin receptor in cell membranes

SMILES | Stimulation [%]
O=C1Cc2ccccc2N1C1CCN(C2CCC3CCCCC3C2)CC1 (centres undefined) | 62
O=C1Cc2ccccc2N1C1CCN(C2CCc3ccccc3C2)CC1 (centres undefined) | 30.9
CC(C)[C@H]1CC[C@@H](N2CCC(N3C(=O)Cc4ccccc43)CC2)CC1 | 100
CC(C)[C@H]1CC[C@H](N2CCC(N3C(=O)Cc4ccccc43)CC2)CC1 | 65
O=C1Cc2ccccc2N1C1CCN(C2CCC3CCCC[C@@H]3C2)CC1 (some centres undefined) | 78
O=C1Cc2ccccc2N1C1CCN(C2CCCCCCC2)CC1 | 59.1
O=C1Cc2ccccc2N1C1CCN(Cc2ccccc2)CC1 | 18
O=C1Cc2ccccc2N1C1CCN(C2CCCC3CCCCC32)CC1 (centres undefined) | 40

Biological target: Nociceptin receptor (Homo sapiens) (UniProt P41146)
Assay: Percent stimulation of [35S]GTP-gamma-S, binding to human Nociceptin receptor in cell membranes was determined using cAMP assay

SMILES | Stimulation [%]
O=C1Cc2ccccc2N1C1CCN(C2C3CCCC2CCC3)CC1 (centres undefined) | 45
